The text below walks through data of patent US20250361280A1 (Protagonist Therapeutics, Inc., priority 2022, published 2025).

SMILES strings stand for the structures.

A word on the IC50: it is the midpoint of a concentration-inhibition curve.

The first test has as its target T1, ferroportin (Homo sapiens, UniProt Q9NP59).
T1 sequence (Q9NP59 1-571): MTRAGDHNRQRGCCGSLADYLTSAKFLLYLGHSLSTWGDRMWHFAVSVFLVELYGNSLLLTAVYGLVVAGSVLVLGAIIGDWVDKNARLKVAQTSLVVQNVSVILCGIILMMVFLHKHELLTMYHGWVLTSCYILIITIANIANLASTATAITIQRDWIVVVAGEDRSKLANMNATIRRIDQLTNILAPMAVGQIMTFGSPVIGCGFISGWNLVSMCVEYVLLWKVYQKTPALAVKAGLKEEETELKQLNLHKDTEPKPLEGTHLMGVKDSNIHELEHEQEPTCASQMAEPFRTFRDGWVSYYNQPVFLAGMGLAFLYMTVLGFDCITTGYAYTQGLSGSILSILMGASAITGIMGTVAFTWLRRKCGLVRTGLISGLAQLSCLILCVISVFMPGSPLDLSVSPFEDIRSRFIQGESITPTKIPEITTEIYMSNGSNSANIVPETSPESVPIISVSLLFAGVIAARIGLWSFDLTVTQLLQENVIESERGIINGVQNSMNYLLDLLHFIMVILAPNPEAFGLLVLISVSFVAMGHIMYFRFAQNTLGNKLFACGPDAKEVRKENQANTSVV
Kind of test: FPN internalization assay (FPN activity assay), loss of ferroportin-GFP fluorescence. Type of test: cell-based.
Conditions: not given
Molecule `O=C(CNCc1nc(C(=O)NCc2ncccc2F)co1)N[C@@H](Cc1c[nH]cn1)C(=O)N[C@H](C(=O)N1CCC[C@H]1C(=O)NCCCCc1ccccc1)C(c1ccccc1)c1ccccc1` [compound 134] came in with an IC50 of over 500 nM.
Molecule `CC(C)CC(=O)N[C@@H](CCC(=O)O)C(=O)N[C@H](C(=O)N[C@@H](Cc1c[nH]cn1)C(=O)N[C@H](C(=O)N1CCC[C@H]1C(=O)N[C@H](CCCCN)C(=O)N(Cc1ccccc1)C(CCc1ccccc1)C(=O)O)C(c1ccccc1)c1ccccc1)[C@@H](C)O` (stereo partly shown) [compound 146] had a 50% inhibitory concentration (IC50) of 100 to 500 nM.
In turn, `CC(C)CC(=O)N[C@@H](CCC(=O)O)C(=O)N[C@H](C(=O)N[C@@H](Cc1c[nH]cn1)C(=O)N[C@H](C(=O)NCCCCCCCCCCCc1ccccc1)C(c1ccccc1)c1ccccc1)[C@@H](C)O` [compound 49] came in with an IC50 of over 500 nM.
The molecule `CC(C)CC(=O)N[C@@H](CCC(=O)O)C(=O)N[C@H](C(=O)N[C@@H](Cc1c[nH]cn1)C(=O)N[C@H](C(=O)N1CCC[C@H]1C(=O)NCCCCCCCCCCCc1ccccc1)C(c1ccccc1)c1ccccc1)[C@@H](C)O` [compound 50] came in with an IC50 of over 500 nM.
Molecule `CCCCCCCCCCCCCCCC(=O)NCCOCCOCCOCCOCCOCCOCCOCCOCCOCCOCCOCCOCCC(=O)NCCCCCC(=O)NCCCC[C@H](NC(=O)[C@@H]1CCCN1C(=O)[C@@H](NC(=O)[C@H](Cc1c[nH]cn1)NC(=O)[C@@H](NC(=O)[C@H](CCC(=O)O)NC(=O)CC(C)C)[C@@H](C)O)C(c1ccccc1)c1ccccc1)C(=O)N(CC1CCCCC1)C(C(=O)N[C@@H](CCCCN)C(=O)O)c1ccccc1` (stereo partly shown) [compound 180] came in with an IC50 of 1 to 30 nM.
`CC(C)CC(=O)N[C@@H](CCC(=O)O)C(=O)N[C@H](C(=O)N[C@@H](Cc1c[nH]cn1)C(=O)N[C@H](C(=O)N1CCC[C@H]1C(=O)N[C@@H](CCCCN)C(=O)N(CC1CCCCC1)C(C(=O)N[C@@H](CCCCN)C(=O)O)c1ccccc1)C(c1ccccc1)c1ccccc1)[C@@H](C)O` (stereo partly shown) [compound 181] showed a half-inhibitory concentration (IC50) of over 500 nM.
`CCCCCCc1ccc(CCCCNC(=O)CN(C)C(=O)[C@@H]2CCCN2C(=O)[C@@H](NC(=O)[C@H](Cc2c[nH]cn2)NC(=O)[C@@H](NC(=O)[C@H](CCC(=O)O)NC(=O)CC(C)C)[C@@H](C)O)C(c2ccccc2)c2ccccc2)cc1` [compound 51] returned an IC50 of over 500 nM.

Still in this test, the particulars now being: Table 1C; HEK293 cells stably expressing ferroportin-GFP, compound at least 18 hours; read-out: IC50: FPN.
Regarding `CC(C)CC(=O)N[C@@H](CCC(=O)O)C(=O)N[C@H](C(=O)N[C@@H](Cc1c[nH]cn1)C(=O)N[C@H](C(=O)N1CCC[C@H]1C(=O)O)C(c1ccccc1)c1ccccc1)[C@@H](C)O` [compound 9], the IC50 was over 500 nM.
On to `CC(C)CC(=O)N[C@@H](CCC(=O)O)C(=O)N[C@H](C(=O)N[C@@H](Cc1c[nH]cn1)C(=O)N[C@H](C(=O)N1CCC[C@H]1C(=O)N(C)CC(=O)O)C(c1ccccc1)c1ccccc1)[C@@H](C)O` [compound 10], for which the IC50 is over 500 nM.
Consider `CC(C)CC(=O)N[C@@H](CCC(=O)O)C(=O)N[C@H](C(=O)N[C@@H](Cc1c[nH]cn1)C(=O)N[C@H](C(=O)O)C(c1ccccc1)c1ccccc1)[C@@H](C)O` [compound 8], for which the IC50 was over 500 nM.
As to `COC(=O)CC[C@H](NC(=O)CC(C)C)C(=O)N[C@H](C(=O)N[C@@H](Cc1c[nH]cn1)C(=O)N[C@H](C(=O)N1CCC[C@H]1C(=O)N1CCC[C@@H]1C(=O)NCC(=O)N(C)[C@@H](CCCCNC(=O)COCCOCCNC(=O)COCCOCCNC(=O)[C@H](CN)NC(=O)CCCCCCCCCCCCCCCCC(=O)O)C(=O)N[C@H](CC(=O)N[C@H](CCCCN)C(N)=O)Cc1ccccc1)C(c1ccccc1)c1ccccc1)[C@@H](C)O` [compound 47], the IC50 is over 500 nM.
On the same count and under the same terms, to `CCCCCCCCCCCCCCCC(=O)NCCCCCC(=O)NCCCC[C@H](NC(=O)[C@H]1CSSC[C@H](NC(=O)[C@H](CCC(=O)O)NC(=O)CC(C)C)C(=O)N[C@@H](Cc2c[nH]cn2)C(=O)N[C@@H](C(c2ccccc2)c2ccccc2)C(=O)N1)C(=O)N[C@H](C(N)=O)C(c1ccccc1)c1ccccc1` [compound 32] belongs 30 to 100 nM; to `CCCCCCCCCCCCCCCC(=O)NCCCCCC(=O)NCCCC[C@H](NC(=O)[C@@H]1CCCN1C(=O)[C@@H](NC(=O)[C@H](Cc1c[nH]cn1)NC(=O)[C@@H](NC(=O)[C@H](CCC(=O)OC)NC(=O)CC(C)C)[C@@H](C)O)C(c1ccccc1)c1ccccc1)C(=O)NCCCCCc1ccccc1` [compound 19], 30 to 100 nM; to `COC(=O)CC[C@H](NC(=O)CC(C)C)C(=O)N(C)[C@H](C(=O)N[C@@H](Cc1c[nH]cn1)C(=O)N[C@H](C(=O)N1CCC[C@H]1C(=O)N(C)[C@@H](CCCCNC(=O)C[N+](C)(C)CCNC(=O)CCCCCCCCCCCCCCCCC(=O)O)C(=O)N[C@H](C(=O)N[C@H](CCCCN)C(N)=O)C(c1ccccc1)c1ccccc1)C(c1ccccc1)c1ccccc1)[C@@H](C)O` [compound 41], over 500 nM.
The same measure, in the same setting: the value for `CCCCCCCCCCCCCCCC(=O)NCCCCCC(=O)NCCCC[C@H](NC(=O)[C@@H]1CCCN1C(=O)[C@@H](NC(=O)[C@H](Cc1c[nH]cn1)NC(=O)[C@H]([C@@H](C)O)N(C)C(=O)[C@H](CCC(=O)OC)NC(=O)CC(C)C)C(c1ccccc1)c1ccccc1)C(=O)NCCCCCc1ccccc1` [compound 3] was over 500 nM; that for `CCCCCCCCCCCCCCCC(=O)NCCCCCC(=O)NCCCC[C@H](NC(=O)[C@@H]1C[C@H]2CN1C(=O)[C@H](C(c1ccccc1)c1ccccc1)NC(=O)[C@H](Cc1c[nH]cn1)NC(=O)[C@H]([C@@H](C)O)NC(=O)[C@@H](NC(=O)CC(C)C)CCCC(=O)N2)C(=O)NCCCCCc1ccccc1` [compound 13] was over 500 nM.

The same test, now with this note: Table 1D; HEK293 cells stably expressing ferroportin-GFP, compound at least 18 hours; read-out: IC50: FPN.
Turning to `NCCCC[C@@H](NC(=O)[C@@H]1CCCN1C(=O)[C@@H](NC(=O)[C@H](Cc1c[nH]cn1)NC(=O)CNCc1nc(C(=O)NCc2ncccc2F)co1)C(c1ccccc1)c1ccccc1)C(=O)NCCCCc1ccccc1` [compound 132], the IC50 was over 500 nM.
For the molecule `CCCCCC(=O)NCCCC[C@H](NC(=O)[C@@H]1CCCN1C(=O)[C@@H](NC(=O)[C@H](Cc1c[nH]cn1)NC(=O)[C@@H](NC(=O)[C@H](CCC(=O)O)NC(=O)CC(C)C)[C@@H](C)O)C(c1ccccc1)c1ccccc1)C(=O)NCCCCc1ccccc1` [compound 205], the IC50 lay in the range of 30 to 100 nM.
For `NCC(=O)N[C@@H](Cc1c[nH]cn1)C(=O)N[C@H](C(=O)N1CCC[C@H]1C(=O)NCCCCc1ccccc1)C(c1ccccc1)c1ccccc1` [compound 133], the IC50 is over 500 nM.
For the molecule `CCCCCCCCCCCCCCCC(=O)NCCOCCOCCOCCOCCOCCOCCOCCOCCOCCOCCOCCOCCC(=O)NCCCC[C@H](NC(=O)[C@@H]1CCCN1C(=O)[C@@H](NC(=O)[C@H](Cc1c[nH]cn1)NC(=O)[C@@H](NC(=O)[C@H](CCC(=O)O)NC(=O)CC(C)C)[C@@H](C)O)C(c1ccccc1)c1ccccc1)C(=O)NCCCCc1ccccc1` [compound 209], the half-inhibitory concentration (IC50) lay in the range of 1 to 30 nM.
Same read-out and setting: the value for `CC(C)CC(=O)N[C@@H](CCC(=O)O)C(=O)N[C@H](C(=O)N[C@@H](Cc1c[nH]cn1)C(=O)N[C@H](C(=O)N1CCC[C@H]1C(N)=O)C(c1ccccc1)c1ccccc1)[C@@H](C)O` [compound 143] was over 500 nM; that for `CC(C)CC(=O)NCCCC[C@H](NC(=O)[C@@H]1CCCN1C(=O)[C@@H](NC(=O)[C@H](Cc1c[nH]cn1)NC(=O)[C@@H](NC(=O)[C@H](CCC(=O)O)NC(=O)CC(C)C)[C@@H](C)O)C(c1ccccc1)c1ccccc1)C(=O)NCCCCc1ccccc1` [compound 204] was 1 to 30 nM.
